Test results: patent publication US20250195530A1, “POLQ INHIBITORS” (ASTRAZENECA AB, priority 2022, published 2025)

Protein sequences, listed by entry. Tags and fused reporters are not part of them. Residues count along the entry.
UniProt O75417, 1780-2590: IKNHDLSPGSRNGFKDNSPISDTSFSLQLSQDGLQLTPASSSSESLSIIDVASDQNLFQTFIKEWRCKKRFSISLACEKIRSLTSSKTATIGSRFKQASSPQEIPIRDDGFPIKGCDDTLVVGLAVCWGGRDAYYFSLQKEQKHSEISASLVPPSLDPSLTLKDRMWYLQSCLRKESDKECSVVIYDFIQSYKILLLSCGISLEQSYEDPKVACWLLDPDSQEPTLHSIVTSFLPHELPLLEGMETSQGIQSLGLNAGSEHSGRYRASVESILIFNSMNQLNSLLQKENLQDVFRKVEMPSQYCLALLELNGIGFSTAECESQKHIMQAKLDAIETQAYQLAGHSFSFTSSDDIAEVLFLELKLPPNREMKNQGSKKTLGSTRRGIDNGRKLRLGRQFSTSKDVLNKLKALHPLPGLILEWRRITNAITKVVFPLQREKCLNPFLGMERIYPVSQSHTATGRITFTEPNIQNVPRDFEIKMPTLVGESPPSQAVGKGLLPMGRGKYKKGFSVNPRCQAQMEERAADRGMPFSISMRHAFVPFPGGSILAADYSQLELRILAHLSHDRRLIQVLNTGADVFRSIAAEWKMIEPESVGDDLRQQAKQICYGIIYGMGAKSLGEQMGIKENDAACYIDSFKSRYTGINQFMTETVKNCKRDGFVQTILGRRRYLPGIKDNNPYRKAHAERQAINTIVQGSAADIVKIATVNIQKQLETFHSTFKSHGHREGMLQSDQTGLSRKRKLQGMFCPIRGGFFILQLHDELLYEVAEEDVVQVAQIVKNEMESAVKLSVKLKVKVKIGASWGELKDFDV

Target: isolated polymerase domain (I1780-V2590) of DNA polymerase theta (Polθ) (Homo sapiens (Human), UniProt O75417)
Assay: biochemical

Structure (SMILES)	IC50
Cc1ccnc(Cn2c(-c3ccc(O[C@@H]4CNC(=O)C4)cc3Cl)nc3c(OC4(C)CC4)ncnc32)c1 [Example T184, (S)-4-(3-chloro-4-(6-(1-methylcyclopropoxy)-9-((4-methylpyridin-2-yl)methyl)-9H-purin-8-yl)phenoxy)pyrrolidin-2-one]	3.16 nM
CC1(Oc2ncnc3c2nc(-c2ccc(CC(N)=O)cc2Cl)n3Cc2nc(C3CC3)no2)CC1 [Example T23, 2-(3-chloro-4-(9-((3-cyclopropyl-1,2,4-oxadiazol-5-yl)methyl)-6-(1-methylcyclopropoxy)-9H-purin-8-yl)phenyl)acetamide]	79.4 nM
CC(C)Oc1ccc2c(c1)nc(-c1ccc(OCCC3CCCN3C)cc1Cl)n2Cc1ccccc1 (single isomer, unassigned) [Example A9, 1-benzyl-2-(2-chloro-4-(2-(1-methylpyrrolidin-2-yl)ethoxy)phenyl)-5-isopropoxy-1H-benzo[d]imidazole]	3.16 nM
CC(CCOc1ccc(-c2nc3c(OC4(C)CC4)ncnc3n2Cc2cc(Cl)ccc2F)c(Cl)c1)C(=O)O (racemic) [Example T268, 4-(3-chloro-4-(9-(5-chloro-2-fluorobenzyl)-6-(1-methylcyclopropoxy)-9H-purin-8-yl)phenoxy)-2-methylbutanoic acid]	6.31 nM
Cc1ccnc(Cn2c(-c3ccc(CC(=O)N4CCC(O)CC4)cc3Cl)nc3c(OC4(C)CC4)ncnc32)c1 [Example T574, 2-(3-chloro-4-(6-(1-methylcyclopropoxy)-9-((4-methylpyridin-2-yl)methyl)-9H-purin-8-yl)phenyl)-1-(4-hydroxypiperidin-1-yl)ethan-1-one]	7.94 nM
CC1(Oc2ncnc3c2nc(-c2ccc(CC(N)=O)cc2Cl)n3Cc2cc(C#N)ccc2F)CC1 [Example T77, 2-(3-chloro-4-(9-(5-cyano-2-fluorobenzyl)-6-(1-methylcyclopropoxy)-9H-purin-8-yl)phenyl)acetamide]	7.94 nM
Cc1ccnc(Cn2c(-c3ccc(CCN4CC(O)C4)cc3Cl)nc3c(OC4(C)CC4)ncnc32)c1 [Example T355, 1-(3-chloro-4-(6-(1-methylcyclopropoxy)-9-((4-methylpyridin-2-yl)methyl)-9H-purin-8-yl)phenethyl)azetidin-3-ol]	6.31 nM
CNCCCOc1ccc(-c2nc3c(OC4(C)CC4)ncnc3n2Cc2cc(Cl)ccn2)c(Cl)c1 [Example T134, 3-(3-chloro-4-(9-((4-chloropyridin-2-yl)methyl)-6-(1-methylcyclopropoxy)-9H-purin-8-yl)phenoxy)-N-methylpropan-1-amine]	7.94 nM
Cc1ccnc(Cn2c(-c3ccc(OCC(=O)N4CCC[C@H](F)C4)cc3Cl)nc3c(OC4(C)CC4)ncnc32)c1 [Example T552, (S)-2-(3-chloro-4-(6-(1-methylcyclopropoxy)-9-((4-methylpyridin-2-yl)methyl)-9H-purin-8-yl)phenoxy)-1-(3-fluoropiperidin-1-yl)ethan-1-one]	7.94 nM
Cc1ccnc(Cn2c(-c3ccc(C(=O)N4CCC[C@H](F)C4)cc3Cl)nc3c(OC4(C)CC4)ncnc32)c1 [Example T418, (S)-(3-chloro-4-(6-(1-methylcyclopropoxy)-9-((4-methylpyridin-2-yl)methyl)-9H-purin-8-yl)phenyl)(3-fluoropiperidin-1-yl)methanone]	50.1 nM
CC1(Oc2ncnc3c2nc(-c2ccc(OCCN4CCNCC4)cc2Cl)n3Cc2ncc(C(F)(F)F)s2)CC1 [Example T207, 2-((8-(2-chloro-4-(2-(piperazin-1-yl)ethoxy)phenyl)-6-(1-methylcyclopropoxy)-9H-purin-9-yl)methyl)-5-(trifluoromethyl)thiazole]	7.94 nM
Cc1ccnc(Cn2c(-c3ccc(OCCN(C)C)cc3Cl)nc3c(OC4(C)CC4)nccc32)c1 [Example T381, 2-(3-chloro-4-(4-(1-methylcyclopropoxy)-1-((4-methylpyridin-2-yl)methyl)-1H-imidazo[4,5-c]pyridin-2-yl)phenoxy)-N,N-dimethylethan-1-amine]	10 nM
CC1(Oc2ncnc3c2nc(-c2ccc(OCC(=O)N4CCNCC4)cc2Cl)n3Cc2ccccc2)CC1 [Example C8, 2-(4-(9-benzyl-6-(1-methylcyclopropoxy)-9H-purin-8-yl)-3-chloro-phenoxy)-1-(piperazin-1-yl)ethan-1-one]	3.98 nM
C#CCNC(=O)c1ccc(-c2nc3c(OC4(C)CC4)ncnc3n2Cc2cc(C)ccn2)c(Cl)c1 [Example T152, 3-chloro-4-(6-(1-methylcyclopropoxy)-9-((4-methylpyridin-2-yl)methyl)-9H-purin-8-yl)-N-(prop-2-yn-1-yl)benzamide]	7.94 nM
COc1ccc(F)cc1Cn1c(-c2ccc(OCC[C@@H](C)C(=O)O)cc2Cl)nc2c(OC3(C)CC3)ncnc21 [Example U67, (R)-4-(3-chloro-4-(9-(5-fluoro-2-methoxybenzyl)-6-(1-methylcyclopropoxy)-9H-purin-8-yl)phenoxy)-2-methylbutanoic acid]	2 nM
CN1CCCC1CCOc1ccc(-c2nc3c(OC4(C)CC4)ncnc3n2Cc2ccccc2)c(Cl)c1 (single isomer, unassigned) [Example D4, 9-benzyl-8-(2-chloro-4-(2-(1-methylpyrrolidin-2-yl)ethoxy)phenyl)-6-(1-methylcyclopropoxy)-9H-purine]	5.01 nM
C[C@@H]1CNCCN1CCOc1ccc(-c2nc3c(OC4(C)CC4)ncnc3n2Cc2cc(Cl)ccn2)c(Cl)c1 [Example T522, (R)-8-(2-chloro-4-(2-(2-methylpiperazin-1-yl)ethoxy)phenyl)-9-((4-chloropyridin-2-yl)methyl)-6-(1-methylcyclopropoxy)-9H-purine]	6.31 nM
Cc1ncsc1CCn1c(-c2ccc(CC(N)=O)cc2Cl)nc2c(OC3(C)CC3)ncnc21 [Example T26, 2-(3-chloro-4-(6-(1-methylcyclopropoxy)-9-(2-(4-methylthiazol-5-yl)ethyl)-9H-purin-8-yl)phenyl)acetamide]	5010 nM
Cc1ccnc(Cn2c(-c3ccc(OCC(=O)NC[C@H](C)F)cc3Cl)nc3c(OC4(C)CC4)ncnc32)c1 [Example T327, (S)-2-(3-chloro-4-(6-(1-methylcyclopropoxy)-9-((4-methylpyridin-2-yl)methyl)-9H-purin-8-yl)phenoxy)-N-(2-fluoropropyl)acetamide]	10 nM

More lines, now with the values ahead:

IC50	Structure (SMILES)
126 nM	Cc1cc(Cn2c(-c3ccc(OCCN4CCNCC4)cc3Cl)nc3c(OC4(C)CC4)ncnc32)ccn1 [Example T531, 8-(2-chloro-4-(2-(piperazin-1-yl)ethoxy)phenyl)-6-(1-methylcyclopropoxy)-9-((2-methylpyridin-4-yl)methyl)-9H-purine]
6.31 nM	CC1(Oc2ncnc3c2nc(-c2ccc(OCCN4C[C@@H]5C[C@H]4CN5)cc2Cl)n3Cc2cc(Cl)ccn2)CC1 [Example T487, 8-(4-(2-((1S,4S)-2,5-diazabicyclo[2.2.1]heptan-2-yl)ethoxy)-2-chlorophenyl)-9-((4-chloropyridin-2-yl)methyl)-6-(1-methylcyclopropoxy)-9H-purine]
6.31 nM	Cc1ccnc(Cn2c(-c3cccc(OCCCN4CC[C@@H](O)C4)c3Cl)nc3c(OC4(C)CC4)ncnc32)c1 [Example T593, (R)-1-(3-(2-chloro-3-(6-(1-methylcyclopropoxy)-9-((4-methylpyridin-2-yl)methyl)-9H-purin-8-yl)phenoxy)propyl)pyrrolidin-3-ol]
6.31 nM	Cc1ccnc(Cn2c(-c3ccc(NC(=O)OCCO)cc3Cl)nc3c(OC4(C)CC4)ncnc32)c1 [Example T123, 2-hydroxyethyl (3-chloro-4-(6-(1-methylcyclopropoxy)-9-((4-methylpyridin-2-yl)methyl)-9H-purin-8-yl)phenyl)carbamate]
5.01 nM	C[C@@H](CCOc1ccc(-c2nc3c(OC4(C)CC4)ncnc3n2Cc2cccc(C#N)c2)c(Cl)c1)C(=O)O [Example U8, (S)-4-(3-chloro-4-(9-(3-cyanobenzyl)-6-(1-methylcyclopropoxy)-9H-purin-8-yl)phenoxy)-2-methylbutanoic acid]
10 nM	Cc1ccnc(Cn2c(-c3ccc(OCC(=O)N4CCC[C@H]4C#N)cc3Cl)nc3c(OC4(C)CC4)ncnc32)c1 [Example T539, (S)-1-(2-(3-chloro-4-(6-(1-methylcyclopropoxy)-9-((4-methylpyridin-2-yl)methyl)-9H-purin-8-yl)phenoxy)acetyl)pyrrolidine-2-carbonitrile]
25.1 nM	CC1(Oc2ncnc3c2nc(-c2ccc(CC(N)=O)cc2Cl)n3Cc2nnc(C3CC3)s2)CC1 [Example T20, 2-(3-chloro-4-(9-((5-cyclopropyl-1,3,4-thiadiazol-2-yl)methyl)-6-(1-methylcyclopropoxy)-9H-purin-8-yl)phenyl)acetamide]
7.94 nM	CC(CCCc1ccc(-c2nc3c(OC4(C)CC4)ncnc3n2Cc2cccc(Cl)c2)c(Cl)c1)C(=O)O (racemic) [Example T434, 5-(3-chloro-4-(9-(3-chlorobenzyl)-6-(1-methylcyclopropoxy)-9H-purin-8-yl)phenyl)-2-methylpentanoic acid]
12.6 nM	CC(CCOc1ccc(-c2nc3c(OC4(C)CC4)ncnc3n2Cc2c(Cl)cccc2Br)c(Cl)c1)C(=O)O (racemic) [Example T259, 4-(4-(9-(2-bromo-6-chlorobenzyl)-6-(1-methylcyclopropoxy)-9H-purin-8-yl)-3-chlorophenoxy)-2-methylbutanoic acid]
6.31 nM	CC(CCOc1ccc(-c2nc3c(OC4(C)CC4)ncnc3n2Cc2cc(C#N)ccc2F)c(Cl)c1)C(=O)O (racemic) [Example U18, 4-(3-chloro-4-(9-(5-cyano-2-fluorobenzyl)-6-(1-methylcyclopropoxy)-9H-purin-8-yl)phenoxy)-2-methylbutanoic acid]
3.16 nM	COc1ccc(F)cc1Cn1c(-c2cccc(OCC(C)CC(=O)O)c2Cl)nc2c(OC3(C)CC3)ncnc21 (single isomer, unassigned) [Example U77, 4-(2-chloro-3-(9-(5-fluoro-2-methoxybenzyl)-6-(1-methylcyclopropoxy)-9H-purin-8-yl)phenoxy)-3-methylbutanoic acid]
3.98 nM	C[C@@H](CCOc1ccc(-c2nc3c(OC4(C)CC4)ncnc3n2Cc2cccc(Cl)c2)c(Cl)c1)C(=O)O (single isomer, unassigned; isomer 2) [Example 35, 4-(3-Chloro-4-(9-(3-chlorobenzyl)-6-(1-methylcyclopropoxy)-9H-purin-8-yl)phenoxy)-2-methylbutanoic acid (Isomer 2)]
